Experimental data as given in patent publication US10023614B2, “Oral peptide inhibitors of interleukin-23 receptor and their use to treat inflammatory bowel diseases” (Protagonist Therapeutics, Inc., priority 2014, dated 2018).
Where two headings read alike, the source gives them in different places.

How the values were obtained:
human IL-23R = human IL-23R (Homo sapiens, UniProt Q5VWK5); type: binding
[1] = target: T1, Natural killer (NK) cells (Homo sapiens, UniProt Q5VWK5); test: NK Cell Assay (IL-23-dependent IFNγ production); type: cell-based; settings: Table 14
T1 sequence (Q5VWK5 24-629): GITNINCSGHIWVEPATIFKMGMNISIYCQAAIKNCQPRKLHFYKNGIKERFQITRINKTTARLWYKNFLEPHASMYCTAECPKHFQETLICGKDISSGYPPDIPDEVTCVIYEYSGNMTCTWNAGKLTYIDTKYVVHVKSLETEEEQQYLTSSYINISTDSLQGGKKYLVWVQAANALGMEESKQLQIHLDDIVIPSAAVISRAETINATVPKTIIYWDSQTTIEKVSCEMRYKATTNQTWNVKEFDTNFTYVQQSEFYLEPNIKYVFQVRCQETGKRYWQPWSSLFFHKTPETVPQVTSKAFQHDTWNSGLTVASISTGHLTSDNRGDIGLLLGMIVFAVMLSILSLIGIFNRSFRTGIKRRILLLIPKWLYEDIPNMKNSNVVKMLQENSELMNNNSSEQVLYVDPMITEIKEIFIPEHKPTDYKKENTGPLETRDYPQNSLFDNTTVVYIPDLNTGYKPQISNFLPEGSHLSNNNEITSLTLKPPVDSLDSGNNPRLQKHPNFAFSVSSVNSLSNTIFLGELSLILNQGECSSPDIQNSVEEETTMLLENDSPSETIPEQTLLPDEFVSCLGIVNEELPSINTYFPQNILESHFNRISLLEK

[2] = Table 3H, read-out: Human IL23/IL23R ELISA

SMILES	IC50 (human IL-23R; [2]) [µM]	further results
CC(=O)N[C@H]1CSSC[C@@H](C(=O)N[C@@H](Cc2ccc(O)cc2)C(=O)N[C@@H](Cc2ccc(-c3ccccc3)cc2)C(=O)N[C@@H](CCCN)C(=O)N[C@@H](CN)C(=O)N[C@@H](Cc2ccccc2)C(=O)NCC(=O)NCCOCC(=O)N[C@H](CCCCN)C(N)=O)NC(=O)[C@H](C(C)C)NC(=O)[C@H](Cc2c[nH]c3ccccc23)NC(=O)[C@H](CC(=O)O)NC(=O)[C@H](C)NC1=O [compound 72]	–	IC50 (human IL-23R; Table 3G, read-out: Human ELISA IL23/IL23R): > 30 µM
CC(=O)N[C@H]1CSSC[C@@H](C(=O)N[C@@H](Cc2ccc(O)cc2)C(N)=O)NC(=O)[C@H](C(C)C)NC(=O)[C@H](Cc2c[nH]c3ccccc23)NC(=O)[C@H](CC(=O)O)NC(=O)[C@H](C)NC1=O [compound 381]	> 30	–
CC(=O)N[C@H]1CSSC[C@@H](C(=O)N[C@@H](Cc2ccc(O)cc2)C(=O)N[C@@H](Cc2c[nH]c3ccccc23)C(=O)N[C@@H](CCC(N)=O)C(=O)N[C@@H](CCC(=O)O)C(=O)N[C@@H](CCCCN)C(=O)NCC(=O)N[C@H](C(=O)N[C@@H](CC(=O)O)C(N)=O)[C@@H](C)O)NC(=O)[C@H](CCC(N)=O)NC(=O)[C@H](Cc2c[nH]c3ccccc23)NC(=O)[C@H]([C@@H](C)O)NC(=O)[C@H](CCCNC(=N)N)NC1=O [compound 397]	0.118	–
CC(=O)NCC(=O)N[C@H](CC(N)=O)C(=O)N[C@H](CCC(=O)O)C(=O)N[C@H](CC(C)C)C(=O)N[C@H](Cc1c[nH]c2ccccc12)C(=O)N[C@H](Cc1ccc(O)cc1)C(=O)N[C@@H]1CSSC[C@H](C(N)=O)NC(=O)[C@@H](CCC(N)=O)NC(=O)[C@@H]([C@H](C)O)NC(=O)[C@@H](Cc2c[nH]c3ccccc23)NC(=O)[C@@H](CCC(N)=O)NC1=O [compound 502]	> 30	–
COc1ccc(C[C@H](NC(=O)[C@H]2NC(=O)[C@H](CCC(N)=O)NC(=O)[C@H](Cc3c[nH]c4ccccc34)NC(=O)[C@H]([C@@H](C)O)NC(=O)[C@H](CC(N)=O)NC(=O)[C@@H](NC(=O)[C@@H](Cc3ccccc3)NC(C)=O)C(C)(C)SSC2(C)C)C(=O)N[C@@H](Cc2ccc3ccccc3c2)C(=O)NC2(C(=O)N[C@@H](CCCNC(N)=O)C(=O)N[C@@H](CC(N)=O)C(=O)N[C@@H](CC(N)=O)C(N)=O)CCOCC2)cc1 [compound 1048]	–	IC50 [1]: < 0.01 µM
